# Test results reported in patent publication US20070225248A1 (Clavis Pharma AS, priority 2006, published 2007).
# Like-named read-outs stand apart in the source and are kept apart here.
# System: Colon 6044 (human colon carcinoma)
# Details: for Optimum T/C [%] (on day) / Toxic deaths (d): Q3 × 5
structure (smiles),measurement,setting,value
"Nc1ccn([C@@H]2O[C@H](CO)[C@@H](O)C2(F)F)c(=O)n1 [Gemcitabine, 2′,2′-difluorodeoxycytidine, reference compound]",Optimum T/C [%] (on day),Oral 120 mg/kg,Toxic
same,Toxic deaths (d),"Oral 120 mg/kg, deaths days 11-16",7/8(11-16)
same,Optimum T/C [%] (on day),Oral 180 mg/kg,Toxic
same,Toxic deaths (d),"Oral 180 mg/kg, deaths days 11-16",7/8(11-16)
same,Optimum T/C [%] (on day),Oral 240 mg/kg,Toxic
same,Toxic deaths (d),"Oral 240 mg/kg, deaths days 11-15",8/8(11-15)
same,toxicity after oral administration compared to intraperitoneal (parenteral) administration (in words),"mouse, in vivo",largely increased
